Data published in patent US20190055512A1, “METHODS AND COMPOSITIONS FOR SUBSTITUTING MEMBRANE LIPIDS IN LIVING CELLS” (The Research Foundation for The State University of New York, priority 2016, published 2019).

Test system: A549 cells
Assay: Cell morphology (cell rounding) and cell condition during incubation with MαCD and lipids

incubation time after which cells were sensitive (MαCD alone): about 15 minutes
time to rounding up of cells (MαCD alone): ≤ 15 min
incubation time at which normal morphology begins to change (no lipid, 40 mM MαCD): ≈15′
Substance: Methyl-α-cyclodextrin [MαCD]
